These compounds were tested against HLA-A*2402 (Homo sapiens, UniProt P04439, D101N/D140Y/D185E/E176V/E190D/F33S/G103R/G107R/I119L/I121M/I306V/K335N/L105A/L180Q/L300P/N151K/N90K/Q86E/Q94H/R106L/R138H/R89G/T104I/T345S/V100E/W191G/Y123F) (assay: Class I peptide-binding assay, A*2402). Settings: not given.
In the case of CC[C@H](C)[C@H](NC(=O)[C@H](Cc1ccc(O)cc1)NC(=O)[C@@H](N)CC(C)C)C(=O)N[C@@H](Cc1ccccc1)C(=O)N[C@@H](C)C(=O)N[C@H](C(=O)N[C@@H](CS)C(=O)N[C@@H](CC(C)C)C(=O)NCC(=O)N[C@@H](Cc1ccccc1)C(=O)O)[C@@H](C)O, the “increase in HLA-A*2402 binding affinity of analog over wildtype” value is reported as greater than 15 fold.
With CC(C)C[C@H](NC(=O)[C@H](CCC(=O)O)NC(=O)[C@H](CCCNC(=N)N)NC(=O)[C@H](Cc1ccc(O)cc1)NC(=O)[C@@H](N)CCCNC(=N)N)C(=O)N[C@H](C(=O)N[C@@H](CO)C(=O)N[C@@H](CCC(=O)O)C(=O)N[C@@H](Cc1ccccc1)C(=O)O)C(C)C [HER2/neu.968Y2] the “increase in HLA-A*2402 binding affinity of analog over wildtype” value was greater than 18 fold.

Same assay, conditions: A*[…], Table 19a, CEA-derived A24 binders
CC[C@H](C)[C@H](NC(=O)[C@H](CS)NC(=O)[C@H](Cc1ccc(O)cc1)NC(=O)[C@@H](N)CCCNC(=N)N)C(=O)N1CCC[C@H]1C(=O)N[C@@H](Cc1c[nH]c2ccccc12)C(=O)N[C@@H](CCC(N)=O)C(=O)N[C@@H](CCCNC(=N)N)C(=O)N[C@@H](Cc1ccccc1)C(=O)O [compound 248] gave an IC50 of 191 nM.
CC[C@H](C)[C@H](N)C(=O)N[C@@H](Cc1ccc(O)cc1)C(=O)N1CCC[C@H]1C(=O)N[C@@H](CC(N)=O)C(=O)N[C@@H](C)C(=O)N[C@@H](CO)C(=O)N[C@@H](CC(C)C)C(=O)N[C@@H](CC(C)C)C(=O)N[C@@H](Cc1ccccc1)C(=O)O [compound 257] gave an IC50 of 2.2 nM.

Same assay, conditions: binding affinity (IC50) to HLA-A*2402, running text
For CC(C)C[C@H](NC(=O)[C@H](CCC(=O)O)NC(=O)[C@H](Cc1c[nH]c2ccccc12)NC(=O)[C@@H](NC(=O)[C@@H](NC(=O)[C@@H](NC(=O)CNC(=O)[C@H](Cc1ccc(O)cc1)NC(=O)[C@@H](N)CO)C(C)C)[C@@H](C)O)C(C)C)C(=O)O, the IC50 was no more than 100 nM.

Same assay, conditions: result in words
For CC[C@H](C)[C@H](NC(=O)[C@H](Cc1ccc(O)cc1)NC(=O)[C@@H](N)CC(C)C)C(=O)N[C@@H](Cc1ccccc1)C(=O)N[C@@H](C)C(=O)N[C@H](C(=O)N[C@@H](CS)C(=O)N[C@@H](CC(C)C)C(=O)NCC(=O)N[C@@H](Cc1ccccc1)C(=O)O)[C@@H](C)O, the “change of HLA-A*2402 binding affinity of analog” value (shortened to “change … of analog”) was “significantly higher binding affinity”.
With CC[C@H](C)[C@H](NC(=O)[C@H](CC(C)C)NC(=O)[C@H](Cc1c[nH]c2ccccc12)NC(=O)[C@H](CO)NC(=O)[C@H](Cc1ccc(O)cc1)NC(=O)[C@@H](N)CCC(N)=O)C(=O)N[C@@H](CC(=O)O)C(=O)NCC(=O)N[C@@H](CC(N)=O)C(=O)N[C@@H](Cc1ccccc1)C(=O)O [CEA.446F10] the “change … of analog” value was “significantly improved binding”.
For CC(C)C[C@H](NC(=O)[C@H](CC(N)=O)NC(=O)[C@H](C)NC(=O)CNC(=O)[C@H](CO)NC(=O)[C@H](CC(C)C)NC(=O)[C@H](Cc1ccc(O)cc1)NC(=O)[C@@H](N)CO)C(=O)N[C@@H](CC(N)=O)C(=O)N[C@@H](Cc1ccccc1)C(=O)O [CEA.604F10], the “change … of analog” value was “significantly improved binding”.
With CC(C)C[C@H](NC(=O)[C@H](CCC(=O)O)NC(=O)[C@H](CCCNC(=N)N)NC(=O)[C@H](Cc1ccc(O)cc1)NC(=O)[C@@H](N)CCCNC(=N)N)C(=O)N[C@H](C(=O)N[C@@H](CO)C(=O)N[C@@H](CCC(=O)O)C(=O)N[C@@H](Cc1ccccc1)C(=O)O)C(C)C [HER2/neu.968Y2] the “change … of analog” value was “significantly improved”.

Each compound was assayed against HLA-A*0101 (Homo sapiens, UniProt P04439, A114D/A174V/A182V/D101N/D185E/E176A/E190D/L180R/Q94H/R68K/S129P/T187R/V100A/V91M/W191G) (assay: Class I peptide-binding assay, A*0101). Settings: A*[…], Table 18a, CEA-derived A1 binders.
In the case of C[C@H](NC(=O)[C@H](CCC(N)=O)NC(=O)[C@@H](N)CCC(N)=O)C(=O)N[C@H](C(=O)N1CCC[C@H]1C(=O)NCC(=O)N1CCC[C@H]1C(=O)N[C@@H](C)C(=O)N[C@@H](Cc1ccc(O)cc1)C(=O)O)[C@@H](C)O [compound 159], the IC50 is reported as 10000 nM.
CC(C)C[C@H](NC(=O)[C@@H]1CCCN1C(=O)[C@H](CO)NC(=O)[C@H](CC(=O)O)NC(=O)[C@@H](NC(=O)[C@@H]1CCCN1)[C@@H](C)O)C(=O)N[C@@H](CC(N)=O)C(=O)N[C@H](C(=O)N[C@@H](CO)C(=O)N[C@@H](Cc1ccc(O)cc1)C(=O)O)[C@@H](C)O [compound 163] was tested, and the IC50 was 266 nM.
C[C@H](N)C(=O)N[C@@H](C)C(=O)N[C@@H](CO)C(=O)N[C@@H](CC(N)=O)C(=O)N1CCC[C@H]1C(=O)N1CCC[C@H]1C(=O)N[C@@H](C)C(=O)N[C@@H](CCC(N)=O)C(=O)N[C@@H](Cc1ccc(O)cc1)C(=O)O [compound 164] gave an IC50 of 10000 nM.
For CC(C)[C@H](N)C(=O)N[C@H](C(=O)N[C@@H](CCCNC(=N)N)C(=O)N[C@@H](CC(N)=O)C(=O)N[C@@H](CC(=O)O)C(=O)N[C@H](C(=O)NCC(=O)N1CCC[C@H]1C(=O)N[C@@H](Cc1ccc(O)cc1)C(=O)O)C(C)C)[C@@H](C)O [compound 168], the IC50 was 10000 nM.
CC(C)[C@H](N)C(=O)N[C@H](C(=O)N[C@@H](CC(=O)O)C(=O)N[C@@H](CC(N)=O)C(=O)N[C@@H](CC(=O)O)C(=O)N[C@H](C(=O)NCC(=O)N1CCC[C@H]1C(=O)N[C@@H](Cc1ccc(O)cc1)C(=O)O)C(C)C)[C@@H](C)O [compound 169] gave an IC50 of 4.1 nM.
In the case of CC[C@H](C)[C@H](NC(=O)[C@@H](NC(=O)[C@@H]1CCCN1)[C@@H](C)O)C(=O)N[C@@H](CO)C(=O)N1CCC[C@H]1C(=O)N[C@@H](CO)C(=O)N[C@@H](Cc1ccc(O)cc1)C(=O)N[C@H](C(=O)N[C@@H](Cc1ccc(O)cc1)C(=O)N[C@@H](Cc1ccc(O)cc1)C(=O)O)[C@@H](C)O [compound 171], the IC50 is reported as 325 nM.
Work on C[C@@H](O)[C@H](NC(=O)[C@H](Cc1ccc(O)cc1)NC(=O)[C@H](CO)NC(=O)[C@@H]1CCCN1C(=O)[C@H](CO)NC(=O)[C@H](CC(=O)O)NC(=O)[C@@H](NC(=O)[C@@H]1CCCN1)[C@@H](C)O)C(=O)N[C@@H](Cc1ccc(O)cc1)C(=O)N[C@@H](Cc1ccc(O)cc1)C(=O)O [compound 172] yielded an IC50 of 1.1 nM.
C[C@@H](O)[C@H](NC(=O)[C@H](Cc1ccc(O)cc1)NC(=O)[C@H](CO)NC(=O)[C@@H]1CCCN1C(=O)[C@H](CO)NC(=O)[C@H](CC(=O)O)NC(=O)[C@@H](NC(=O)[C@@H]1CCCN1)[C@@H](C)O)C(=O)N[C@@H](Cc1ccc(O)cc1)C(=O)O [compound 174] gave an IC50 of 38 nM.
Compound CC[C@H](C)[C@H](NC(=O)[C@@H](N)[C@@H](C)O)C(=O)N[C@@H](CO)C(=O)N1CCC[C@H]1C(=O)N[C@@H](CO)C(=O)N[C@@H](Cc1ccc(O)cc1)C(=O)N[C@H](C(=O)N[C@@H](Cc1ccc(O)cc1)C(=O)N[C@@H](Cc1ccc(O)cc1)C(=O)O)[C@@H](C)O [compound 175] has an IC50 of 1040 nM.
Work on CC[C@H](C)[C@H](NC(=O)[C@@H](N)[C@@H](C)O)C(=O)N[C@@H](CC(=O)O)C(=O)N1CCC[C@H]1C(=O)N[C@@H](CO)C(=O)N[C@@H](Cc1ccc(O)cc1)C(=O)N[C@H](C(=O)N[C@@H](Cc1ccc(O)cc1)C(=O)N[C@@H](Cc1ccc(O)cc1)C(=O)O)[C@@H](C)O [compound 176] yielded an IC50 of 3.1 nM.
Compound C[C@H](NC(=O)[C@H](C)NC(=O)[C@@H](N)Cc1c[nH]cn1)C(=O)N[C@@H](CO)C(=O)N[C@@H](CC(N)=O)C(=O)N1CCC[C@H]1C(=O)N1CCC[C@H]1C(=O)N[C@@H](C)C(=O)N[C@@H](CCC(N)=O)C(=O)N[C@@H](Cc1ccc(O)cc1)C(=O)O [compound 177] has an IC50 of 2690 nM.
Compound C[C@H](NC(=O)[C@H](CO)NC(=O)[C@@H](N)Cc1c[nH]cn1)C(=O)N[C@@H](CO)C(=O)N[C@@H](CC(N)=O)C(=O)N1CCC[C@H]1C(=O)N[C@@H](CO)C(=O)N1CCC[C@H]1C(=O)N[C@@H](CCC(N)=O)C(=O)N[C@@H](Cc1ccc(O)cc1)C(=O)O [compound 182] has an IC50 of 74 nM.

Same assay, conditions: A*[…], Table 18b, Her2/neu-derived A1 binders
Work on CC(C)C[C@H](NC(=O)[C@@H]1CCCN1C(=O)[C@H](CO)NC(=O)[C@H](C)NC(=O)[C@@H]1CCCN1)C(=O)N[C@@H](CC(=O)O)C(=O)N[C@@H](CO)C(=O)N[C@H](C(=O)N[C@@H](Cc1ccccc1)C(=O)N[C@@H](Cc1ccc(O)cc1)C(=O)O)[C@@H](C)O [compound 193] yielded an IC50 of 1670 nM.
CC(C)C[C@H](NC(=O)[C@@H]1CCCN1C(=O)[C@H](CO)NC(=O)[C@H](C)N)C(=O)N[C@@H](CC(=O)O)C(=O)N[C@@H](CO)C(=O)N[C@H](C(=O)N[C@@H](Cc1ccccc1)C(=O)N[C@@H](Cc1ccc(O)cc1)C(=O)O)[C@@H](C)O [compound 195] showed an IC50 of 862 nM.
For CSCC[C@H](N)C(=O)NCC(=O)N[C@@H](CC(=O)O)C(=O)N[C@@H](CC(C)C)C(=O)N[C@H](C(=O)N[C@@H](CC(=O)O)C(=O)N[C@@H](C)C(=O)N[C@@H](CCC(=O)O)C(=O)N[C@@H](CCC(=O)O)C(=O)N[C@@H](Cc1ccc(O)cc1)C(=O)O)C(C)C [compound 197], the IC50 was 2080 nM.
CC(C)C[C@H](NC(=O)[C@H](CC(N)=O)NC(=O)[C@H](CC(=O)O)NC(=O)[C@H](Cc1ccccc1)NC(=O)[C@H](C)NC(=O)[C@@H]1CCCN1C(=O)[C@H](CO)NC(=O)[C@@H](N)Cc1ccccc1)C(=O)N[C@@H](Cc1ccc(O)cc1)C(=O)O [compound 203] gave an IC50 of 581 nM.

Same assay, conditions: A*[…], Table 18c, Mage2/3-derived A1 binders
With CC(C)C[C@H](NC(=O)CNC(=O)[C@H](CC(C)C)NC(=O)[C@H](CS)NC(=O)[C@@H](NC(=O)[C@@H](N)C(C)C)[C@@H](C)O)C(=O)N[C@@H](CO)C(=O)N[C@@H](Cc1ccc(O)cc1)C(=O)O [compound 215] the IC50 was 1140 nM.
In the case of CC(C)[C@H](NC(=O)[C@H](CO)NC(=O)CN)C(=O)N[C@H](C(=O)NCC(=O)N[C@@H](CC(N)=O)C(=O)N[C@@H](Cc1c[nH]c2ccccc12)C(=O)N[C@@H](CCC(N)=O)C(=O)N[C@@H](Cc1ccc(O)cc1)C(=O)O)C(C)C [compound 227], the IC50 is reported as 4240 nM.

Same assay, conditions: binding affinity (IC50) to HLA-A*0101, running text
Compound CSCC[C@H](NC(=O)[C@@H](NC(=O)[C@@H](NC(=O)[C@@H]1CCCN1C(=O)[C@H](CC(C)C)NC(=O)[C@H](CO)NC(=O)[C@H](CO)NC(=O)[C@H](C)N)[C@@H](C)O)[C@@H](C)O)C(=O)N[C@@H](CC(N)=O)C(=O)N[C@@H](Cc1ccc(O)cc1)C(=O)O [MAGE3.68] has an IC50 of no more than 100 nM.
CC(C)C[C@H](N)C(=O)N[C@H](C(=O)N[C@@H](CCC(N)=O)C(=O)N[C@@H](Cc1c[nH]cn1)C(=O)N[C@@H](Cc1ccccc1)C(=O)N[C@H](C(=O)N[C@@H](CCC(N)=O)C(=O)N[C@@H](CCC(=O)O)C(=O)N[C@@H](CC(N)=O)C(=O)N[C@@H](Cc1ccc(O)cc1)C(=O)O)C(C)C)[C@@H](C)O [MAGE3.246] was tested, and the IC50 was no more than 100 nM.

Same assay, conditions: read-out: A*[…]; Table 18b, Her2/neu-derived A1 binders
For CC(C)C[C@H](NC(=O)[C@H](CC(N)=O)NC(=O)[C@H](CC(=O)O)NC(=O)[C@H](Cc1ccccc1)NC(=O)[C@H](CC(=O)O)NC(=O)[C@@H]1CCCN1C(=O)[C@@H](N)CO)C(=O)N[C@@H](Cc1ccc(O)cc1)C(=O)N[C@@H](Cc1ccc(O)cc1)C(=O)O [compound 206], the IC50 was 74 nM.

From patent EP1903056A2, “HLA-A1, -A2 -A3, -A24, -B7, and -B44 tumor associated antigen peptides and compositions” (priority 2002, dated 2004)
